For 6 molecules, IC50 results are on record in ChEMBL document CHEMBL4007405 (J Med Chem, 2017).

pIC50: −log10 of the molar value.

Experiment [1] concerns the target T1, Disintegrin and metalloproteinase domain-containing protein 17 (Homo sapiens, UniProt P78536). Briefly: Inhibition of recombinant human TACE extracellular domain (215 to 671 residues) assessed as inhibition of proteolytic activity preincubated for 30 mins prior to addition of Mca-Pro-Leu-Ala-Gln-Ala-Val-Dpa-Arg-Ser-Ser-Ser-Arg-NH2 as substrate measured every 2 mins for 3 hrs by fluorescence analysis.

Experiment [2] concerns the target T1, Disintegrin and metalloproteinase domain-containing protein 17.

For `CC[C@H](C)[C@@H]1NC(=O)[C@@H]2CSSC[C@H](NC(=O)[C@H](CCCNC(=N)N)NC(=O)[C@@H]3CSSC[C@H](NC1=O)C(=O)N[C@@H]([C@@H](C)O)C(=O)N[C@@H](CCCNC(=N)N)C(=O)NCC(=O)N[C@@H](Cc1ccccc1)C(=O)N3)C(=O)N[C@@H](CC(C)C)C(=O)N[C@H]1CSSC[C@H](NC(=O)[C@H](C(C)C)NC(=O)[C@H](CC(=O)O)NC(=O)[C@H](CCCNC(=N)N)NC(=O)[C@H](CCCNC(=N)N)NC1=O)C(=O)N[C@@H](CCCNC(=N)N)C(=O)N2`, the pIC50 (usually the negative decadic logarithm of the IC50, by convention in mol/L) in experiment [1] is 5.95.
Take `CC[C@H](C)[C@@H]1NC(=O)CNC(=O)[C@H](CCCNC(=N)N)NC(=O)[C@H](CCCNC(=N)N)NC(=O)[C@@H]2CSSC[C@H](NC1=O)C(=O)N[C@@H](CCCNC(=N)N)C(=O)N[C@H]1CSSC[C@H](NC(=O)[C@H](CCCNC(=N)N)NC(=O)[C@@H]3CSSC[C@H](NC(=O)[C@H]([C@@H](C)CC)NC1=O)C(=O)N[C@@H]([C@@H](C)O)C(=O)N[C@@H](CCCNC(=N)N)C(=O)NCC(=O)N[C@@H](Cc1ccccc1)C(=O)N3)C(=O)N[C@@H](CC(C)C)C(=O)N2`: in experiment [1], the negative logarithm of the IC50 (pIC50) is 5.41.
For the molecule `CC[C@H](C)[C@@H]1NC(=O)[C@@H]2CSSC[C@H](NC(=O)[C@H](CCCNC(=N)N)NC(=O)[C@@H]3CSSC[C@H](NC1=O)C(=O)N[C@@H]([C@@H](C)O)C(=O)N[C@@H](CCCNC(=N)N)C(=O)NCC(=O)N[C@@H](Cc1ccccc1)C(=O)N3)C(=O)N[C@@H](CC(=O)O)C(=O)N[C@H]1CSSC[C@H](NC(=O)[C@H](C(C)C)NC(=O)CNC(=O)[C@H](CCCNC(=N)N)NC(=O)[C@H](CCCNC(=N)N)NC1=O)C(=O)N[C@@H](CCCNC(=N)N)C(=O)N2`, the pIC50 in experiment [1] is 5.94.
As to `CC[C@H](C)[C@@H]1NC(=O)[C@@H]2CSSC[C@H](NC(=O)[C@H](CCCNC(=N)N)NC(=O)[C@@H]3CSSC[C@H](NC1=O)C(=O)N[C@@H]([C@@H](C)O)C(=O)N[C@@H](CCCNC(=N)N)C(=O)NCC(=O)N[C@@H](Cc1ccccc1)C(=O)N3)C(=O)N[C@@H](CC(C)C)C(=O)N[C@H]1CSSC[C@H](NC(=O)[C@H](Cc3c[nH]c4ccccc34)NC(=O)CNC(=O)[C@H](CCCNC(=N)N)NC(=O)[C@H](CCCNC(=N)N)NC1=O)C(=O)N[C@@H](CCCNC(=N)N)C(=O)N2`, the pIC50 in experiment [2] was 8.00 to 8.42; in experiment [1] it was 6.76.
On to `CC[C@H](C)[C@@H]1NC(=O)[C@@H]2CSSC[C@H](NC(=O)[C@H](CCCNC(=N)N)NC(=O)[C@@H]3CSSC[C@H](NC1=O)C(=O)N[C@@H]([C@@H](C)O)C(=O)N[C@@H](CCCNC(=N)N)C(=O)NCC(=O)N[C@@H](Cc1ccccc1)C(=O)N3)C(=O)N[C@@H](CC(C)C)C(=O)N[C@H]1CSSC[C@H](NC(=O)[C@H](C(C)C)NC(=O)[C@H](CCCNC(=N)N)NC(=O)[C@H](CCCNC(=N)N)NC(=O)[C@H](CCCNC(=N)N)NC1=O)C(=O)N[C@@H](CCCNC(=N)N)C(=O)N2`, for which the pIC50 in experiment [1] is 6.06.
With `CC[C@H](C)[C@@H]1NC(=O)[C@@H]2CSSC[C@H](NC(=O)[C@H](CCCNC(=N)N)NC(=O)[C@@H]3CSSC[C@H](NC1=O)C(=O)N[C@@H]([C@@H](C)O)C(=O)N[C@@H](CCCNC(=N)N)C(=O)NCC(=O)N[C@@H](Cc1ccccc1)C(=O)N3)C(=O)N[C@@H](Cc1c[nH]c3ccccc13)C(=O)N[C@H]1CSSC[C@H](NC(=O)[C@H](C(C)C)NC(=O)CNC(=O)[C@H](CCCNC(=N)N)NC(=O)[C@H](CCCNC(=N)N)NC1=O)C(=O)N[C@@H](CCCNC(=N)N)C(=O)N2`, in experiment [1], the negative logarithm of the IC50 (pIC50) is 6.02.
